# Binding of CDR-mutated scFvs to a peptide of the spike HR2 region

Target peptide (SARS-CoV-2 spike, HR2 region): PDVDLGDISGINAS

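Phage display of a naive human antibody library on the peptide gave the parent. In library AAYL50, one, two or three CDR residues were substituted; doubles and triples were drawn at random. In AlphaSeq, yeast of one mating type display the scFv and yeast of the other type display the target. Pairs that bind mate more often; barcode pairs of the diploids are counted by sequencing. A regression on co-assayed BCL2-family reference pairs converts the normalised counts of each replicate to an apparent Kd. Mating was done three times.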

Ab-14 is the parent antibody, in scFv form: VH, then a (GGGGS)3 linker, then VL. The heavy chain is unchanged in all variants.
VH: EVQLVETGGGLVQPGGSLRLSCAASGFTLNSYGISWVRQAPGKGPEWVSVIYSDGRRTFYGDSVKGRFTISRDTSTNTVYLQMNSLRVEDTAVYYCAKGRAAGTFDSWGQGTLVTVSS
VL: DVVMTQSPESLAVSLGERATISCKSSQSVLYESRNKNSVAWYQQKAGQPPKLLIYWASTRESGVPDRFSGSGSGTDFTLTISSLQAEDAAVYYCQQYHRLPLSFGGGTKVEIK

Variants are written as CDR1, CDR2 and CDR3 of the light chain (limits as in the source). Parent: KSSQSVLYESRNKNSVA, WASTRES, QQYHRLPLS.
Values are apparent Kd, the geometric mean of the replicates that gave a signal; lower means stronger binding.
"no signal" means that the variant was in the library but no mating with the target was seen in any replicate; the authors take this as a sign of poor binding, and no number exists.
Order: sorted from the lowest average up, undetected variants last.
Empty control strains, which show no peptide, gave a signal in 18% of pairings with library AAYL50; the median was 15 µM and 95% of these signals were weaker than 970 nM. No background was subtracted. Also given: how often the same scFv was detected with the empty control strains.

CDR-L1 | CDR-L2 | CDR-L3 | Kd (apparent) | seen in | empty controls
KISQSVLYESRNANSVA | WASTRES | QVYHRLPLS | 500 pM | 3/3 | 2/9
KSSQSKLYESRNKNSVA | HASTREE | QQYHRLPLS | 610 pM | 3/3 | 5/9
KSSQSWLDESRNKNSVA | WASTRES | QQYHRLPLS | 2.2 nM | 3/3 | 3/9
KSSQSVLYESRNMNSVA | WASTRES | QQFFRLPLS | 4.5 nM | 3/3 | 4/9
KSSQSVLYEDRNKNSVA | WASTRES | QQYHRLNLT | 5.9 nM | 3/3 | 0/9
KSSQSVLYESNYKNSVA | WASTRES | FQYHRLPLS | 8.3 nM | 3/3 | 0/9
KSSQTNLYESRNKNSVA | WASTRES | QQYHVLPLS | 8.9 nM | 3/3 | 0/9
KSSQSILYESRNKNSVA | WASTRES | QQQHRLILS | 11 nM | 3/3 | 0/9
KSSQVVLYESPNKNSVA | WASTRES | VQYHRLPLS | 14 nM | 3/3 | 2/9
KSSQSVLNESRNKNSVA | WASTRES | QQGHRLILS | 17 nM | 3/3 | 3/9
KSSQHVLYMSRNKNSVA | WASTRES | QMYHRLPLS | 17 nM | 3/3 | 0/9
KSSQSVLYESINKNSVA | WAGTRES | QQYHRQPLS | 24 nM | 3/3 | 2/9
KSSQSVLYESRNPNSVA | WASTKES | QQYHQLPLS | 25 nM | 3/3 | 2/9
KSSQSVLYESRNKNSVA | CASTRES | QQYHRLPLK | 29 nM | 3/3 | 1/9
KSSQSVLYESRNKDSVA | WASTRES | FQYHRLPLS | 34 nM | 3/3 | 2/9
KSSQSVLYYSPNKNSVA | WASTRES | QQYHRLPHS | 40 nM | 3/3 | 0/9
KSSQSVLPESRNKNSVA | WASTRIK | QQYHRLPLS | 50 nM | 3/3 | 2/9
KSSQWVSYESRNKNKVA | WASTRES | QQYHRLPLS | 55 nM | 3/3 | 1/9
KSSQSWLYESWNHNSVA | WASTRES | QQYHRLPLS | 57 nM | 3/3 | 0/9
KSSQSVLHESRNKNSVA | WASTRES | QQYHRLPIT | 85 nM | 3/3 | 1/9
KSSQSVWYESRNKNSVA | WCSTRES | QTYHRLPLS | 190 nM | 1/3 | 0/9
KSVQSVLSESRNKNSVA | WASTRES | IQYHRLPLS | 350 nM | 1/3 | 0/9
KSSQSVLYESRNKNSVA | WSSTRVF | QQYHRLPLS | 540 nM | 3/3 | 6/9
KSSQSVLKESRNKNSVA | WQSTRES | QLYHRLPLS | 1.4 µM | 2/3 | 1/9
KSSQRVLYESRNKESVA | CASTRES | QQYHRLPLS | 1.9 µM | 3/3 | 2/9
KSSQSVLYESRNKNSVG | WASTRES | QQKHRLPLS | 2.1 µM | 2/3 | 2/9
KSSQSVNYESRNKNSVA | WTSTRES | QQYHNLPLS | 2.6 µM | 3/3 | 2/9
KSSQSVLDESTNKNSVA | WASTRES | QQYHRDPLS | 2.7 µM | 1/3 | 2/9
KSSFSVLYESRYKNSVA | WASTRES | QQGHRLPLS | 3.0 µM | 1/3 | 3/9
KSSQSVLYEARNKNSVA | WASTRES | QQYHWLDLS | 3.6 µM | 1/3 | 1/9
KSSQSVLYVSRNKNSVA | WASTNES | QQYHRLPLV | 4.6 µM | 2/3 | 3/9
KSSQSVLYESRNKNSVS | WAYTRIS | QQYHRLPLS | 5.7 µM | 1/3 | 3/9
KSSCSVLYESRNKNSVA | WASTRES | QRYHRLPRS | 7.0 µM | 1/3 | 4/9
KSSQSVLYEMRNKNHVA | WAYTRES | QQYHRLPLS | 7.2 µM | 1/3 | 1/9
KSHQSVLYESRNKNSLA | IASTRES | QQYHRLPLS | 8.3 µM | 2/3 | 1/9
KDSQSVLYESRNKNPVA | WASTRGS | QQYHRLPLS | 17 µM | 1/3 | 2/9
KSSQSVLYESRNKNSVA | WASTSGS | QQYHRLPLS | 22 µM | 3/3 | 3/9
KSSQSVLYESRNKNSVN | WGSTRDS | QQYHRLPLS | 37 µM | 2/3 | 5/9
KSSSSVLYESRNKNSTA | WASTFES | QQYHRLPLS | 650 µM | 1/3 | 5/9
KSSQSVLYESRNKNSVA | WASPRRS | YQYHRLPLS | 1.1 mM | 1/3 | 3/9
KSSHSVLYESRNKNSTA | WASIRES | QQYHRLPLS | no signal | 0/3 | 1/9
KSSQSVLYESRNKNSFA | WASTRES | EQYHRLPLS | no signal | 0/3 | 0/9
KSSQSVLYESRRKNSVN | WASTRES | QQYHRLCLS | no signal | 0/3 | 1/9
KSSQSVLYESRNKNSVA | KANDRES | QQYHRLPLS | no signal | 0/3 | 1/9
KSSQSVLYESRNKVSVA | WASTRES | YQYHRYPLS | no signal | 0/3 | 0/9
KSSQSVLHLSRNKNSVA | WASTRES | QQYHRAPLS | no signal | 0/3 | 0/9
KSSQSVRYESRNKNSVA | WASTRES | LQYHRLPLW | no signal | 0/3 | 0/9
KSSQSVLYVSRNKNSVA | WASTRES | QQYMRLGLS | no signal | 0/3 | 0/9
KSSISVLYESRNKNSVA | WASSRES | QQYHQLPLS | no signal | 0/3 | 3/9
KSNQSVLYESRKKNSVA | WASTRES | QQKHRLPLS | no signal | 0/3 | 7/9
KSSQSVLNESRNKNSVA | WASTRES | QQYHRLCVS | no signal | 0/3 | 1/9
LSSQSVLYESRNKNSVA | WASTMES | EQYHRLPLS | no signal | 0/3 | 0/9
KSSQSVLYESRNKNSVA | WASTNES | QQYHRLHLS | no signal | 0/3 | 0/9

Extract of 5 entries:

| CDR-L1 | CDR-L2 | CDR-L3 | Kd (apparent) | seen in | empty controls |
|---|---|---|---|---|---|
| KSSQSVLYESRNKNSVN | WGSTRDS | QQYHRLPLS | 37 µM | 2/3 | 5/9 |
| KSSQSVLYESRNKNSVG | WASTRES | QQKHRLPLS | 2.1 µM | 2/3 | 2/9 |
| KSHQSVLYESRNKNSLA | IASTRES | QQYHRLPLS | 8.3 µM | 2/3 | 1/9 |
| KSSQSVLYESNYKNSVA | WASTRES | FQYHRLPLS | 8.3 nM | 3/3 | 0/9 |
| KSSQHVLYMSRNKNSVA | WASTRES | QMYHRLPLS | 17 nM | 3/3 | 0/9 |

From the AlphaSeq antibody data of Engelhart et al. 2022 (doi:10.1038/s41597-022-01779-4), copy in the FLAb collection.